Test results published in patent US20250346630A1, “Engineering Peptides Using Peptide Epitope Linker Evolution” (AGENCY FOR SCIENCE, TECHNOLOGY AND RESEARCH, priority 2022, published 2025).

Sequences of proteins named here, by UniProt entry; tags and fusion partners are left off. Residues count along the entry.
full-length human eIF4E (human), P06730, UniProt P06730, 2-217: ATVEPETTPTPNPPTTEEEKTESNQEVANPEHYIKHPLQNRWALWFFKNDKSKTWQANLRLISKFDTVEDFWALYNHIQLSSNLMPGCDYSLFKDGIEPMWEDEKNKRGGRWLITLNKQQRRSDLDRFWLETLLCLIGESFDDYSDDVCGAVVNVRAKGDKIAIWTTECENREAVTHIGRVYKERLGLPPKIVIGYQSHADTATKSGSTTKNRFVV

Target: full-length human eIF4E (human), P06730
Assay: competitive fluorescence anisotropy, displacement of m7GTP^FAM from eIF4E (apparent Kd); m^7GTP^FAM tracer: competition at the cap-binding site
Settings: remark: other sources report otherwise

Row | Kd [µM] | Binder
1 | 15 | ACETGFFTGCG (here or on the partner: disulphide between the two Cys; C-terminal amide; N-terminus printed NH2- (methods: all peptides N-acetylated)) [EE-01]
2 | 16.7 | ACETGFYKTCG (here or on the partner: disulphide between the two Cys; C-terminal amide; N-terminus printed NH2- (methods: all peptides N-acetylated)) [EE-08]
